The text below walks through data of PubChem BioAssay AID1530 (NMMLSC, 2009).

SMILES strings stand for the structures. Only a part is listed here, and it is no random draw. Some structures show a salt or complex split into parts, the way the source records it. Calls of active or inactive are those of the source. No stated cut-off is given here; in the data, active means percent response above about 24% (passing the limit was not always enough); inactive means the rest.

In this assay the test system is MEKK2 (MAP3K2) mutant PB1 domain binding to MEK5, human. Put plainly: MEK5 binding signal on mutant MEKK2 PB1, primary screen, biochemical, multiplex bead flow cytometry, Alexa488-MEK5 (AID 1530). The conditions noted are these: at 10 µM, hits give high values. In general terms: A flow cytometer gives signals particle by particle.
For the molecule `O=[N+]([O-])c1cc([N+](=O)[O-])c(Nc2nnnn2CCO)c([N+](=O)[O-])c1`, the percent response is inactive: 14%.

For the molecule `CCOC(=O)C(CC)C1=NC(C)(C)Cc2ccccc21.O=[N+]([O-])c1cc([N+](=O)[O-])c(O)c([N+](=O)[O-])c1` (stereo not drawn), the percent response is inactive: 25%.

`CCCOc1ccc(NP(C)(=O)Oc2ccc(Cl)cc2)cc1` (stereo not drawn): the percent response is inactive: -1%.

For the molecule `CP(=O)(Nc1ccc(SC(F)(F)F)cc1)Oc1ccccc1` (stereo not drawn), the percent response was inactive: 0%.

`COc1ccccc1OP(C)(=O)Nc1c(C)cccc1C` (stereo not drawn): the percent response is inactive: -17%.

With `CN1CCCCC1COC(=O)C1(O)c2ccccc2CCc2ccccc21` (stereo not drawn), the percent response was inactive: 3%.

`O=[N+]([O-])c1cc([N+](=O)[O-])c(-n2nnc3ccccc32)c([N+](=O)[O-])c1`: the percent response is inactive: -5%.

For `Cc1nc2ccc3ccccc3c2s1.O=[N+]([O-])c1cc([N+](=O)[O-])c(O)c([N+](=O)[O-])c1`, the percent response was inactive: 6%.

In the case of `Cc1cc(C)cc(OP(C)(=O)Nc2ccc(C)cc2C)c1` (stereo not drawn), the percent response was inactive: 8%.

Take `CCOC(=O)c1ccc(NP(C)(=O)Oc2cc(C)cc(C)c2)cc1` (stereo not drawn): the percent response was inactive: 0%.

`COc1ccccc1OP(C)(=O)Nc1cccc(Br)c1` (stereo not drawn): the percent response was inactive: -15%.

With `Cc1cc(C)cc(OP(C)(=O)Nc2ccccn2)c1` (stereo not drawn), the percent response was inactive: 1%.

On to `CP(=O)(Nc1cccc(Br)c1)Oc1ccccc1` (stereo not drawn), for which the percent response was inactive: 2%.

In the case of `Cc1ccc(C)c(NP(C)(=O)Oc2ccccc2)c1` (stereo not drawn), the percent response is inactive: 4%.

For the molecule `O=C(O)c1cccc(Nc2c([N+](=O)[O-])cc([N+](=O)[O-])cc2[N+](=O)[O-])c1`, the percent response was inactive: -2%.

On to `CC1=NCCc2c1[nH]c1ccccc21.O=[N+]([O-])c1cc([N+](=O)[O-])c(O)c([N+](=O)[O-])c1`, for which the percent response is inactive: 14%.

Turning to `CC(C)(C)c1ccc(OP(C)(=O)Nc2ccc(SC(F)(F)F)cc2)cc1` (stereo not drawn), the percent response was inactive: -2%.

As to `Cc1cccc(C)c1OP(C)(N)=O` (stereo not drawn), the percent response was inactive: -3%.

`O=[N+]([O-])c1ccc2c(c1)C=Nc1ccccc1O2`: the percent response is inactive: 0%.

For `COc1ccccc1OP(C)(=O)Nc1cc(Cl)ccc1C` (stereo not drawn), the percent response was inactive: -6%.

For the molecule `Cc1cc(C)cc(OP(C)(N)=O)c1` (stereo not drawn), the percent response is inactive: -2%.

With `CCOC(=O)c1ccc(NP(C)(=O)Oc2ccccc2)cc1` (stereo not drawn), the percent response was inactive: -1%.

As to `COc1ccccc1OP(C)(=O)Nc1ccc(C)cc1` (stereo not drawn), the percent response was inactive: 1%.

Take `CCN(CC)CCCOC(=O)C(O)(c1ccccc1)c1ccccc1`: the percent response was inactive: -13%.

Take `CP(=O)(NC(=O)Nc1ccccc1)Oc1ccccc1` (stereo not drawn): the percent response was inactive: -3%.

For the molecule `CCc1ccc(OP(C)(=O)N2CCN(c3ccc([N+](=O)[O-])cc3)CC2)cc1` (stereo not drawn), the percent response was inactive: -19%.

In the case of `Cc1cc(C)cc(OP(C)(=O)Nc2ccc(SC(F)(F)F)cc2)c1` (stereo not drawn), the percent response is inactive: 0%.

Regarding `Cc1cccc(C)c1OP(C)(=O)Nc1ccc(SC(F)(F)F)cc1` (stereo not drawn), the percent response was inactive: 6%.

Take `CP(=O)(Nc1ccc(SC(F)(F)F)cc1)Oc1ccc(Cl)cc1` (stereo not drawn): the percent response was inactive: -23%.

For the molecule `CP(=O)(Oc1ccccc1)OC(c1ccccc1)C(F)(F)F` (stereo not drawn), the percent response is inactive: 0%.

Consider `CP(=O)(Nc1ccccn1)Oc1ccc(Cl)cc1` (stereo not drawn), for which the percent response was inactive: 0%.

Regarding `CCOP(C)(=S)SCC(=O)NC(C)C(=O)O` (stereo not drawn), the percent response was inactive: 1%.

Consider `CCOC(=O)c1ccc(NP(C)(=O)Oc2ccc(OC)cc2)cc1` (stereo not drawn), for which the percent response was inactive: 0%.

For `COc1ccccc1OP(C)(=O)Nc1ccccc1` (stereo not drawn), the percent response is inactive: -1%.

Turning to `CP(=O)(Nc1ccccc1Br)Oc1ccccc1` (stereo not drawn), the percent response was inactive: 1%.

Take `CP(=S)(Nn1cnnc1)Oc1ccccc1` (stereo not drawn): the percent response is inactive: 1%.

Regarding `CP(=O)(OC12CC3CC(CC(C3)C1)C2)OC12CC3CC(CC(C3)C1)C2`, the percent response is inactive: 2%.

On to `CCOC(=O)c1ccc(NP(C)(=O)Oc2ccc(Cl)cc2)cc1` (stereo not drawn), for which the percent response was inactive: -1%.

Consider `CP(=O)(Oc1ccccc1)N1CCOC1=O` (stereo not drawn), for which the percent response is inactive: -3%.

As to `CCc1ccc(OP(C)(=O)Nc2cccnc2)cc1` (stereo not drawn), the percent response was inactive: -8%.

Turning to `COc1ccccc1OP(C)(=O)Nc1c(C)n(C)n(-c2ccccc2)c1=O` (stereo not drawn), the percent response is inactive: 4%.

`O=C(OCCCN1CCCC1)C(O)(c1ccccc1)C1CCCCC1` (stereo not drawn): the percent response was inactive: -9%.

For the molecule `CCN(CC)CC(O)COC(=O)C(O)(c1ccccc1)C1CCCCC1` (stereo not drawn), the percent response was inactive: 1%.

For `COc1ccc(OP(C)(=O)Nc2ccc(Br)cc2)cc1` (stereo not drawn), the percent response was inactive: -1%.

Take `CN(C)C(=O)c1c([N+](=O)[O-])cc([N+](=O)[O-])cc1[N+](=O)[O-]`: the percent response is inactive: -4%.

For `CP(=O)(Nc1ccc(Cl)cc1)Oc1ccc(F)cc1` (stereo not drawn), the percent response was inactive: 11%.

Consider `COc1ccccc1OP(C)(=O)Nc1ccccc1Br` (stereo not drawn), for which the percent response is inactive: -2%.

As to `CC(C)(C)c1ccc(OP(C)(=O)O)cc1`, the percent response is inactive: 11%.

Consider `CN(C)CCOC(=O)C(O)(c1ccccc1)C1CCCC1` (stereo not drawn), for which the percent response is inactive: 1%.

For `COc1ccc(OP(C)(=O)Nc2ccccn2)cc1` (stereo not drawn), the percent response was inactive: 2%.

Turning to `COc1ccccc1OP(C)(=O)Nc1ccc(Br)cc1` (stereo not drawn), the percent response was inactive: -20%.

Take `CCc1ccc(OP(C)(=O)O)cc1`: the percent response is inactive: 5%.

For the molecule `CP(=O)(Nc1ccccn1)Oc1ccccc1` (stereo not drawn), the percent response is inactive: 0%.

Regarding `COc1ccccc1OP(C)(=O)Nc1ccc(C)cc1C` (stereo not drawn), the percent response was inactive: 2%.

Turning to `Cc1c(NP(C)(=O)Oc2ccc(C(C)C)cc2)c(=O)n(-c2ccccc2)n1C` (stereo not drawn), the percent response is inactive: 3%.

Consider `O=[N+]([O-])c1cc([N+](=O)[O-])c(Nc2ccccn2)c([N+](=O)[O-])c1`, for which the percent response was inactive: -12%.

For the molecule `COc1ccc(OP(C)(=O)Nc2ccccc2Br)cc1` (stereo not drawn), the percent response was inactive: 13%.

On to `COc1ccccc1OP(C)(=O)Nc1ccc(C)c(C)c1` (stereo not drawn), for which the percent response is inactive: 0%.

`Cc1cc(C)cc(OP(C)(=O)Nc2cccc(C(F)(F)F)c2)c1` (stereo not drawn): the percent response was inactive: -6%.

For `CP(=O)(Nc1ccc(Cl)cc1Cl)Oc1ccccc1` (stereo not drawn), the percent response is inactive: -3%.

Take `CP(=O)(OCCOc1ccccc1)OCCOc1ccccc1`: the percent response was inactive: 4%.

On to `Cc1nc2ccc3ccccc3c2o1.O=[N+]([O-])c1cc([N+](=O)[O-])c(O)c([N+](=O)[O-])c1`, for which the percent response was inactive: -3%.

Take `COc1ccc(OP(C)(=O)Nc2ccc(SC(F)(F)F)cc2)cc1` (stereo not drawn): the percent response was inactive: -11%.

In the case of `CCOC(=O)c1ccc(NP(C)(=O)Oc2ccc(F)cc2)cc1` (stereo not drawn), the percent response was inactive: -2%.

On to `CCCCCOc1ccc(NP(C)(=O)Oc2ccc(Cl)cc2Cl)cc1` (stereo not drawn), for which the percent response is inactive: 12%.

`O=[N+]([O-])c1cc([N+](=O)[O-])c(OC2CCCCC2O)c([N+](=O)[O-])c1` (stereo not drawn): the percent response was inactive: 9%.

Consider `CP(=O)(Nc1ccccc1)Oc1ccc(F)cc1` (stereo not drawn), for which the percent response is inactive: -1%.

Regarding `CCN(CC)CCCOC(=O)C(O)(c1ccccc1)C1CCCCC1` (stereo not drawn), the percent response is inactive: 6%.

For `CC(C)c1ccc(OP(C)(=O)Nc2ccc(SC(F)(F)F)cc2)cc1` (stereo not drawn), the percent response is inactive: -3%.

Consider `CP(=O)(Nc1ccccc1F)Oc1ccccc1` (stereo not drawn), for which the percent response was inactive: 8%.

Consider `COc1ccc2c(c1O)-c1c(O)c(OC)cc3c1[C@H](C2)[N+](C)(C)CC3.O=[N+]([O-])c1cc([N+](=O)[O-])c([O-])c([N+](=O)[O-])c1[O-]`, for which the percent response is inactive: 3%.

Consider `O=C(OCCN1CCN(CCOCc2ccccc2)CC1)C(O)(c1ccccc1)c1ccccc1`, for which the percent response was inactive: -3%.

On to `O=C(OC1CN2CCC1CC2)c1ccc([N+](=O)[O-])cc1` (stereo not drawn), for which the percent response was inactive: 5%.

Take `CCOP(C)(=S)SCC(=O)NC(C)(CC)C(=O)O` (stereo not drawn): the percent response was inactive: 3%.

For the molecule `CP(=O)(Nc1ccc(SC(F)(F)F)cc1)Oc1ccc(F)cc1` (stereo not drawn), the percent response was inactive: -23%.

In the case of `Cc1ccccc1NP(C)(=O)Nc1ccccc1C`, the percent response was inactive: 10%.

`CP(=O)(Nc1ccc2c(c1)OCCO2)Oc1ccccc1` (stereo not drawn): the percent response was inactive: 8%.

Consider `COc1ccc(NP(C)(=O)Oc2ccccc2OC)cc1` (stereo not drawn), for which the percent response is inactive: 13%.

Take `CN(C)CCOC(=O)C(O)(c1ccccc1)C1CCCCC1` (stereo not drawn): the percent response was inactive: -5%.

As for `COc1ccc(OP(C)(=O)Nc2cccc(Br)c2)cc1` (stereo not drawn), the percent response is inactive: -1%.

With `Cc1cc(-c2cccc3ccccc23)c(C)cn1.O=[N+]([O-])c1cc([N+](=O)[O-])c(O)c([N+](=O)[O-])c1`, the percent response is inactive: -3%.

With `O=[N+]([O-])c1cc([N+](=O)[O-])c(NCC2CCS(=O)(=O)C2)c([N+](=O)[O-])c1` (stereo not drawn), the percent response is inactive: -1%.

As to `O=[N+]([O-])c1ccc(OP2(=O)COCCO2)cc1` (stereo not drawn), the percent response is inactive: 8%.
